For the series the following is noted: pellet in dialysis bag, plasma/0.1 M phosphate buffer pH 7.4 release medium, 37° C., HPLC.

Results on one substance are retold here after patent US20120195934A1, “POLYMERIC GEL DELIVERY SYSTEM FOR PHARMACEUTICALS” (priority 2002, published 2012).

Regarding morphine-diclofenac maleate [MDM], the “intact MDM in release medium” value is given as “No intact MDM was detectable”.
